# Assay results taken from PubChem BioAssay AID540335 (Broad Institute, 2011).
# The entries are a selection whose mix differs from that of the whole data set. Results with a measured potency or affinity are listed apart. The source made the active and inactive calls.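 Rule for the calls: active = dose-dependent rise or fall in viability, either side of zero, with half-maximal concentration at or below a set limit; inconclusive = flat curve at 30 to 70% viability loss, or poor fit; inactive = flat within 30% either way, or potency beyond limit.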
# Assay: proliferation inhibition in MITF-low A375 cells – cell-based, cherry-pick samples, set 2, counter-screen for MITF modulator project, dose response (AID 540335);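 note: A375 human melanoma cells which do not depend on MITF; 0% = median of neutral control wells and 100% = double that signal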
# Settings: CellTiter-Glo ATP luminescence, 24 h; at 35 µM (top of the series)
row,SMILES,"activity change, negative = decreased viability"
1,O=[N+]([O-])c1cc([N+](=O)[O-])c(-c2ccn[nH]2)s1,inactive: -18.6%
